From PubChem
DT40 TDP1 no CPT = qHTS for Inhibitors of human tyrosyl-DNA phosphodiesterase 1 (TDP1): qHTS in cells in absence of CPT; DT40 Tdp1-/- hTDP1 cells, no CPT, ATP luminescence, 48 h; Potency, µM (doses to about 46.2 µM), most hits filed as inhibitors; 15% of 420,000 active; AID 686978, 2013; also: nearly all actives have a fitted effect of over 55% in size
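Seeded 400 DT40-hTDP1 cells/well (vehicle DMSO, no 20 nM CPT); pinned compounds; ≥48 hr at 37 °C; CellTiter-Glo luminescence as viability measure.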
uPA surface inh = cell surface uPA generation inhibition. cell surface uPA generation assay, qHTS. Potency, µM (titrated, usually from 38.3 µM), most hits filed as inhibitors. 0.31% of 330,000 active. AID 540303; active = well fitted inhibition curve with a large enough effect; inconclusive = small, poorly fitted or top-dose-only effect; inactive = no such curve, though single readings can be large or run the other way; tested in mouse RAW 264.7 cells; also: nearly all actives have a fitted effect of over 55% in size
TDP1 inh = inhibitors of human tyrosyl-DNA phosphodiesterase TDP1; Q9NUW8; recombinant TDP1, AlphaScreen DNA substrate cleavage; Potency, µM (doses to about 130 µM), actives largely listed as inhibitors; 0.28% of 350,000 active; AID 485290; also: nearly all actives have a fitted effect of over 40% in size
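Signal: AlphaScreen proximity between streptavidin donor and anti-FITC acceptor beads on intact substrate. Reaction: Tdp1 1 nM, substrate 15 nM final, 5 min RT after 15 min compound preincubation.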
miR-21 reporter = miR-21 reporter, rising signal; 340,000 tested, under 10 active; Potency, µM (highest dose often 38.3 µM); HeLa miR-21 FLuc reporter, luciferase, 48 h; active = well fitted rising curve with a large enough effect; inconclusive = small, poorly fitted or top-dose-only effect; inactive = no such curve, though single readings can be large or run the other way;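 further: miR-21 action dims this reporter so a rising signal means less miR-21 action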
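Luminescence from a firefly luciferase reporter carrying a miR-21 binding site downstream, stably expressed under a CMV promoter in HeLa cells that make miR-21 endogenously, reports miRNA modulation after 48 h compound exposure up to approximately 40uM final.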
DT40 TDP1 CPT = growth inhibition of DT40 Tdp1-/-;hTDP1 cells with camptothecin (screen for TDP1 inhibitors). chicken DT40 Tdp1-/-;hTDP1 cells + 20 nM CPT, ATP luminescence, 48 h. Potency, µM (doses to about 46.2 µM), actives largely listed as inhibitors. 12% of 420,000 active; also: nearly all actives have a fitted effect of over 55% in size
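Cell growth measured by CellTiter-Glo luminescence after a minimum 48 h, 37 C compound exposure with 20 nM CPT in Tdp1-knockout DT40 cells stably expressing hTDP1, seeded 400/well; qHTS titration format.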
Numbers stand for hits; ! = not active in a repeat. A selection: hits, their analogues and other compounds. The true share with any hit is near 16%. Unless noted, calls follow the shape of the dose curve; as a rule, active = well fitted curve in the direction sought with a large enough effect; inconclusive = small, poorly fitted or top-dose-only effect, or another doubt; inactive = no such curve, though single readings can be large; an effect the other way counts as inactive or inconclusive.

Screening O=[N+]([O-])c1cc(C(F)(F)F)c(Cl)c([N+](=O)[O-])c1Nc1ncc(C(F)(F)F)cc1Cl returned DT40 TDP1 no CPT 0.025µM and DT40 TDP1 CPT 0.1µM.
`O=[N+]([O-])c1ccc(Cl)c([N+](=O)[O-])c1` gave DT40 TDP1 no CPT 4.6µM, uPA surface inh 1.3µM and DT40 TDP1 CPT 3.7µM.
Screening O=[N+]([O-])c1ccc(O)c([N+](=O)[O-])c1 returned DT40 TDP1 no CPT inconclusive, uPA surface inh inactive, TDP1 inh inactive and DT40 TDP1 CPT inconclusive.
`C[C@@]12C(=O)N(Cc3ccco3)CC(=O)N1[C@H]1c3ccccc3OC[C@@H]1[C@@H]2c1ccccc1` gave DT40 TDP1 no CPT inconclusive, uPA surface inh inactive, TDP1 inh inactive and DT40 TDP1 CPT inconclusive.
For CC[C@]12C=CCN3CC[C@@]4(c5ccc(OC)cc5N(C)[C@H]4[C@@](O)(C(=O)OC)[C@@H]1OC(C)=O)C32 (stereo partly specified) the results were TDP1 inh inactive.
Screening CCOC(=O)[C@]12Cc3cc(OC)ccc3[C@H]1N(C)C(=O)c1cc(OC)ccc12 returned DT40 TDP1 no CPT 16µM and DT40 TDP1 CPT inconclusive.
For CCCCCN1C(=O)c2cc(OC)ccc2[C@@]2(C(=O)OCC)Cc3cc(OC)ccc3[C@@H]12 the results were DT40 TDP1 no CPT 5.2µM and DT40 TDP1 CPT 10µM.
Screening CCOC(=O)[C@]12Cc3cc(OC)ccc3[C@H]1N(CC(=O)OC)C(=O)c1ccccc12 returned DT40 TDP1 no CPT inactive and DT40 TDP1 CPT inactive.
`CCOC(=O)[C@]12Cc3cc(Cl)ccc3[C@H]1N(C)C(=O)c1cc(OC)ccc12` gave DT40 TDP1 no CPT 16µM and DT40 TDP1 CPT 23µM.
`CCOC(=O)[C@]12Cc3cc(OC)ccc3[C@H]1N(CC(=O)OC)C(=O)c1cc(OC)ccc12` gave DT40 TDP1 no CPT 6.5µM and DT40 TDP1 CPT 18µM.
CCOC(=O)C1C(=O)N(C)C2(C)CC1c1cc(OC)ccc1O2 (stereo unspecified) was read as DT40 TDP1 no CPT inactive, uPA surface inh inactive, TDP1 inh inactive, miR-21 reporter inactive and DT40 TDP1 CPT inactive.
`Nc1cc(Cl)ccc1Cl` gave TDP1 inh inactive.
C[C@]12CCC3C(CC[C@H]4C[C@@H](O)CC[C@]34C)C1CCC2=O (stereo partly specified) was read as DT40 TDP1 no CPT inconclusive, uPA surface inh inactive, TDP1 inh inactive and DT40 TDP1 CPT inconclusive.
OCC1OC(n2cnc3cc(Cl)c(Cl)cc32)C(O)C1O (stereo unspecified) was read as DT40 TDP1 no CPT inconclusive, TDP1 inh inactive and DT40 TDP1 CPT 15µM!.
`Cc1ccc(OCCOc2cccc(C=C3C(=O)NC(=O)NC3=O)c2)c(C)c1` gave DT40 TDP1 no CPT inconclusive, uPA surface inh inactive, TDP1 inh 79µM, miR-21 reporter inactive and DT40 TDP1 CPT inconclusive.
`O=C1NC(=O)C(=Cc2cccc(OCCOc3ccccc3)c2)C(=O)N1` gave DT40 TDP1 no CPT inconclusive, uPA surface inh inactive, miR-21 reporter inactive and DT40 TDP1 CPT inconclusive.
`ClCCN(CCCl)/C(=C\c1ccccc1)c1ccnc2ccccc12` gave DT40 TDP1 no CPT 3.5µM and DT40 TDP1 CPT 5.6µM.
`CN(Cc1ccccc1)C(=O)CN1CCCC1=O` gave DT40 TDP1 no CPT inactive, uPA surface inh inactive, miR-21 reporter inactive and DT40 TDP1 CPT inactive.
Screening CN(Cc1ccccc1)C(=O)c1ccc(NC(=O)C2CCN(C(=O)OC(C)(C)C)CC2)cc1 returned DT40 TDP1 no CPT 15µM, uPA surface inh inactive, TDP1 inh inactive and DT40 TDP1 CPT 23µM.
`O=C1NC(=O)C(Nc2ccc(Cl)c(Cl)c2)C(=O)N1` gave DT40 TDP1 no CPT inactive, uPA surface inh inactive and DT40 TDP1 CPT inactive.
For Cc1[nH]c2ccccc2c1C(=O)CN1CC=C(c2ccccc2)CC1 the results were DT40 TDP1 no CPT inconclusive, uPA surface inh inactive, TDP1 inh inactive, miR-21 reporter inactive and DT40 TDP1 CPT 16µM.
For Cc1cc(Br)c(NC(=O)CN2CC=C(c3ccccc3)CC2)c(Br)c1 the results were DT40 TDP1 no CPT inconclusive, uPA surface inh inactive, TDP1 inh inactive, miR-21 reporter inactive and DT40 TDP1 CPT inactive.
O=C(c1ccc(N2CC3CC(C2)c2cccc(=O)n2C3)c([N+](=O)[O-])c1)N1CCCC1 (stereo unspecified) was read as DT40 TDP1 no CPT inactive, uPA surface inh inactive, TDP1 inh inactive, miR-21 reporter inactive and DT40 TDP1 CPT inactive.
`CC1(O)CCC2C3CCC4=CC(=O)CCC4=C3C=CC21C` (stereo unspecified) gave DT40 TDP1 no CPT 15µM, uPA surface inh inactive and DT40 TDP1 CPT 9.2µM.
`CC[C@H](CC[C@@H](C)C1CC[C@H]2[C@@H]3CC=C4C[C@@H](O)CC[C@]4(C)[C@H]3CC[C@]12C)C(C)C` (stereo partly specified) gave DT40 TDP1 no CPT inactive, TDP1 inh inactive and DT40 TDP1 CPT inactive.
`CC[N+](CC)(CC)CCOC(=O)C(C1CCCC1)C1CCCC1` gave DT40 TDP1 no CPT 11µM and DT40 TDP1 CPT inconclusive.
For COC(=O)C1C(=O)C=C(Nc2ccc(F)cc2F)CC1c1ccccc1 (stereo unspecified) the results were DT40 TDP1 no CPT inactive, uPA surface inh inactive, TDP1 inh inactive, miR-21 reporter inactive and DT40 TDP1 CPT inactive.
For CC[C@]1(O)CC[C@H]2[C@@H]3CCC4=CCCC[C@@H]4[C@H]3CC[C@@]21C the results were DT40 TDP1 no CPT 5.3µM and DT40 TDP1 CPT 7.5µM.
Screening O=C1NC(=O)C2(CCN(S(=O)(=O)c3ccccc3)CC2)C(=O)N1 returned DT40 TDP1 no CPT inactive, uPA surface inh inactive and DT40 TDP1 CPT inactive.
For CC1(CCl)CN1S(=O)(=O)c1ccccc1 (stereo unspecified) the results were DT40 TDP1 no CPT inconclusive, uPA surface inh inactive, miR-21 reporter inactive and DT40 TDP1 CPT 18µM.
`Cc1ccccc1N1CCN(C2CCCN(C(=O)COc3ccccc3)C2)CC1` (stereo unspecified) gave DT40 TDP1 no CPT 21µM, uPA surface inh inactive, TDP1 inh inactive, miR-21 reporter inactive and DT40 TDP1 CPT 26µM.
`CC(=O)c1ccc(OCC(=O)N2CCCC(N3CCN(c4ccccc4C)CC3)C2)cc1` (stereo unspecified) gave DT40 TDP1 no CPT inconclusive, uPA surface inh inactive, TDP1 inh inactive, miR-21 reporter inactive and DT40 TDP1 CPT inconclusive.
Screening CCCCCCCCc1[se]c2ccccc2c1[Se]c1ccccc1 returned TDP1 inh inactive.
For O=C(C1CCCN(S(=O)(=O)c2cccc3nsnc23)C1)N1CCC2(CC1)OCCO2 (stereo unspecified) the results were DT40 TDP1 no CPT inactive, uPA surface inh inactive, TDP1 inh inactive, miR-21 reporter inactive and DT40 TDP1 CPT inactive.
